Key:
[1] = molecular target: T1, CYP2C9 (Homo sapiens, UniProt P11712); test: biochemical
[2] = molecular target: T1, CYP2C9; test: biochemical; remark: listed apart in the source
[3] = molecular target: CYP2E1 (Homo sapiens, UniProt P05181); test: IC50 shift study; format: in vitro ADME; conditions: IC50 minus NADPH/IC50 plus NADPH
[4] = molecular target: CYP2B6 (Homo sapiens, UniProt P20813); test: IC50 shift study; format: in vitro ADME; conditions: IC50 minus NADPH/IC50 plus NADPH
[5] = molecular target: T1, CYP2C9; test: biochemical; remark: listed apart in the source
[6] = molecular target: T1, CYP2C9; conditions: IC50 minus NADPH/IC50 plus NADPH

Sequences of proteins named here, by UniProt entry; tags and fusion partners are left off. A change or cut given only in a name is not applied to a line headed by its entry.
UniProt P11712, whole entry: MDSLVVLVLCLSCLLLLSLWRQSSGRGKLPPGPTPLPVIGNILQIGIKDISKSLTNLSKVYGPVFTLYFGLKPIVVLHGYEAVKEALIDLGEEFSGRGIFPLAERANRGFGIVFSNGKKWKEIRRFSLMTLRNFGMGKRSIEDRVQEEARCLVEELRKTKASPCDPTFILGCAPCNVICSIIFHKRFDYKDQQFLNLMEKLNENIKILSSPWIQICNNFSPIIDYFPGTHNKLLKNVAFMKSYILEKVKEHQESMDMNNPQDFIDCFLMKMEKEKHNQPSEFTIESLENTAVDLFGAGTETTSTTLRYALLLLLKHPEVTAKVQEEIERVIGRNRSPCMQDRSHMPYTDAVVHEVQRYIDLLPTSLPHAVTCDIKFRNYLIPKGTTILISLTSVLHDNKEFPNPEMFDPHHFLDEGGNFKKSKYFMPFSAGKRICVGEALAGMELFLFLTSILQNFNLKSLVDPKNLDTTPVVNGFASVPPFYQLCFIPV
UniProt P05181: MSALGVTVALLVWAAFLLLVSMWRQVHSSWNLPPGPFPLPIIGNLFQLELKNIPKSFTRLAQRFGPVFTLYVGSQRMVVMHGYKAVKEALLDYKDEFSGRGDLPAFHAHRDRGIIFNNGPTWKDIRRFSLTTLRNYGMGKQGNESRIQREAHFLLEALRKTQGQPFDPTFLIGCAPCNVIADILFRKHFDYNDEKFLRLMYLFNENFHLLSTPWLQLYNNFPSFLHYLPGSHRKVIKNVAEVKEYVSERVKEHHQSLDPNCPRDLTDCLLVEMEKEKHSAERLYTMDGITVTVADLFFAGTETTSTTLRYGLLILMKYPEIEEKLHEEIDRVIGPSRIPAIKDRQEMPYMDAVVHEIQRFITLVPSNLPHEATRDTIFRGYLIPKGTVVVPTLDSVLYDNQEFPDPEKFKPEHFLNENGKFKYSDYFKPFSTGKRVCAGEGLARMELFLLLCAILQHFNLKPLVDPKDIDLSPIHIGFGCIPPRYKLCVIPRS
UniProt P20813: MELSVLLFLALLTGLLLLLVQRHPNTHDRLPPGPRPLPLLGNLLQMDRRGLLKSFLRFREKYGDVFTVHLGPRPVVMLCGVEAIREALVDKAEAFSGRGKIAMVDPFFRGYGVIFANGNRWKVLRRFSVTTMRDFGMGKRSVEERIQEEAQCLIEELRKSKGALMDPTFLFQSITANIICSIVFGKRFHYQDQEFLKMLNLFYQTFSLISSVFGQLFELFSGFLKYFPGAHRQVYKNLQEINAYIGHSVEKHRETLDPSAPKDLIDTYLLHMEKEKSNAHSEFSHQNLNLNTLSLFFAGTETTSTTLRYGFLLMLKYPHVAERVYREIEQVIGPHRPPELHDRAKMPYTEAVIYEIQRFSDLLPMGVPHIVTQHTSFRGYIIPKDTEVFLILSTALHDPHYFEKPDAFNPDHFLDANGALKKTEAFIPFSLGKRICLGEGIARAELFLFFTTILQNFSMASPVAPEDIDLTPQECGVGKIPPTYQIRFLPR

CCCCCc1cc(O)c2c(c1)OC(C)(C)c1ccc(C)cc1-2 [CBN, cannabinol]
IC50 ([1]; IC50 (+)): 2700 ± 2100 nM
IC50 ([1]; IC50 (−)): 3000 ± 2200 nM
IC50 ([2]; IC50): 2900 ± 510 nM
IC50 ([2]; IC50,u): 1510 ± 270 nM
Ki ([2]; Ki): 1900 ± 1300 nM
Ki ([2]; Ki,u): 990 ± 680 nM
Shift [3]: 1.2 ± 0.16
Shift [4]: 1.1 ± 0.061
IC50 ([5]; IC50): 1400 ± 440 nM
IC50 ([5]; IC50,u): 420 ± 130 nM
Ki ([5]; Ki): 1000 ± 190 nM
Ki ([5]; Ki,u): 300 ± 57 nM
Shift [6]: 1.1 ± 0.11
